1 substance from patent US11072611B2, “Compounds and pharmaceutical compositions thereof for the treatment of inflammatory disorders” (Galapagos NV, priority 2013, dated 2021) can be followed below.

One may read the IC50 as the concentration that inhibits the measured activity by half. The low end stands for higher potency, the high end for lower potency.

This assay concerns the target hENPP2 (UniProtKB/SwissProt Sequence ref Q13822) (Homo sapiens (Human), UniProt Q13822). Description: Human ENPP2 (hENPP2) biochemical assay, LPC as substrate. To be noted: hENPP2, LPC (palmitoyl 16:0) as substrate. The method, then:
The principle of the assay consists in quantifying the released choline with an enzymatic method using choline oxidase and peroxidase. Choline oxydation by choline oxydase releases betaine and peroxide. The latter is quantified in presence of HRP that converts the peroxide detection agent TOOS and 4-aminoantipyrine into quinoneimine dye. The appearance of quinoneimine dye is measured spectrophotometrically at 555 nm and is proportional to the amount of choline released by ENPP2. Inhibition of ENPP2 will result in a decrease of the signal.
Compound IC50 values are determined in a hENPP2 (UniProtKB/SwissProt Sequence ref Q13822) biochemical assay using LPC as substrate.
The enzyme is diluted in 50 mM Tris-HCl pH 8.5, 500 mM NaCl, 5 mM KCl, 10 mM CaCl2, 0.1% fatty acid free BSA in a total volume of 10 μL. the reaction is started by the addition of 10 μL of 150 μM LPC (palmitoyl 16:0) diluted in the same buffer as described above and the mixture is incubated at 37° C. for 30 min. The reaction is terminated and choline quantified by the addition of a 25 μL of a mixture containing 0.6 U/mL of choline oxidase, 0.6 U/mL of peroxydase, 1.8 mM TOOS, 1.2 mM amino-antipyrine, 20 mM EGTA (stop-developer solution) diluted in the buffer described above. Luminescence is read on the Envision after an incubation of 30 min at room temperature (Excitation 555 nm, excitation light=70%).

For “{2-[4-(2-Ethyl-3-{[4-(4-fluoro-phenyl)-thiazol-2-yl]-methyl-amino}-imidazo[1,2-a]pyridin-6-yl)-piperazin-1-yl]-4,5-dihydro-oxazol-5-yl}-methanol [Compound 222]”, the 50% inhibitory concentration (IC50) was in the range of 500 to 1000 nM.
